Test results taken from ChEMBL document CHEMBL4257593 (J Med Chem, 2018).

Tests used:
[1] = species on record: Homo sapiens; experiment: Selectivity ratio of Kd for wild-type human partial length RIPK2 (M1 to K310 residues) to Kd for wild-type human partial length RIPK1 (M1 to K305 residues)
[2] = species on record: Homo sapiens; experiment: Selectivity ratio of Kd for wild-type human partial length RIPK3 (M1 to Q307 residues) to Kd for wild-type human partial length RIPK1 (M1 to K305 residues)
[3] = species on record: Homo sapiens; experiment: Selectivity ratio of Kd for wild-type human partial length RIPK4 (M1 to V303 residues) to Kd for wild-type human partial length RIPK1 (M1 to K305 residues)

Ratio [1]: 1500
Ratio [2]: 1500
Ratio [3]: 1500
SMILES: CCn1cc(-c2ccc3c(c2)CCN3C(=O)Cc2cccc(OC(F)(F)F)c2)c2c(N)ncnc21
